{"sequences": {"note": "By UniProt entry, the sequences of proteins in these tests, tags left out.", "UniProt P35372, whole entry, looked up": "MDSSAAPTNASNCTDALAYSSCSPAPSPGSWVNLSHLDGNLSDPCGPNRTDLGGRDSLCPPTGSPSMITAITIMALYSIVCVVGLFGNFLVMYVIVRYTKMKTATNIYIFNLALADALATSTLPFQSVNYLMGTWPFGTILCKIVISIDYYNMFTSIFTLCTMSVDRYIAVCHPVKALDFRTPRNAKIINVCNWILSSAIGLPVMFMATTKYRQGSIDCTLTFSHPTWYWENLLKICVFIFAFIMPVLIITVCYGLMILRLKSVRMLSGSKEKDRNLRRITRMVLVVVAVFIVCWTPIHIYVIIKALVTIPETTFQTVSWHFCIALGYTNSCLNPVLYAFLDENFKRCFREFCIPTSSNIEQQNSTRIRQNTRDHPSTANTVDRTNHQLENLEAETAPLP", "UniProt P41143, whole entry, looked up": "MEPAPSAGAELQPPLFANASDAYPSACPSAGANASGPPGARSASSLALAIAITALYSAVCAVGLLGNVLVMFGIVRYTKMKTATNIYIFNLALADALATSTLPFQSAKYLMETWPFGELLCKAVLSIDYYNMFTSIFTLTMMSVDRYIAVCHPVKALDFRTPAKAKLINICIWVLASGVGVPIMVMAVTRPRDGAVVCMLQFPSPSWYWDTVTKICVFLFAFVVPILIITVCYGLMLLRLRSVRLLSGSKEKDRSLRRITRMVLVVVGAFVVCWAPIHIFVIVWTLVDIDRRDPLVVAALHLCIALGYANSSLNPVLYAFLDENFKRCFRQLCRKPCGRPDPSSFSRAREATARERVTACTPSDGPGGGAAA"}, "source": "PubChem BioAssay AID504326", "about": "(The Scripps Research Institute Molecular Screening Center, 2011)", "note": "The entries are a selection whose mix differs from that of the whole data set. The source made the active and inactive calls. Cut-off read from the data, not from the text of the source: active = activation above about 18%; inactive = the rest."}
{"molecular_target": "Mu-type opioid receptor (Homo sapiens) + Delta-type opioid receptor (Homo sapiens) (UniProt P35372+P41143)", "assay": "inducers of mu-delta opioid receptor heterodimers – cell-based, luminescence, primary screen (AID 504326);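 note: 0% = vehicle-treated cells and 100% = reference agonist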", "details": "cells, OPRM1-OPRD1 heterodimerization, at 9.3 µM, hits give high values"}
{"smiles": "CCOC(=O)CSc1nc2ccccc2n1CC(=O)N1CCN(c2ccccc2)CC1", "activation": "inactive: -3.11%"}
{"smiles": "c1ccc(CN2CCC3(CC2)Nc2ccccc2CO3)cc1", "activation": "inactive: 1.59%"}
{"smiles": "Cn1c(=O)c2c(ncn2CC(=O)N2CCN(c3ccccc3F)CC2)n(C)c1=O", "activation": "inactive: -2.6%"}
{"smiles": "N#CCC(=O)N/N=C\\c1cc(Br)ccc1OC/C=C/c1ccccc1", "activation": "inactive: -0.3%"}
{"smiles": "Cc1ccc(SCc2nc3ccccc3n2CC(=O)Nc2ccccc2)cc1", "activation": "inactive: 0.96%"}
{"smiles": "Cc1ccc2c(c1)C1CN(C)CCC1N2S(=O)(=O)c1ccc(Oc2ccc([N+](=O)[O-])cc2)cc1", "note": "(stereo not drawn)", "activation": "inactive: 1.95%"}
{"smiles": "COc1cc(NC(=O)Cn2cnc3c(SC)nc(N)nc32)cc(OC)c1OC", "activation": "inactive: 1.19%"}
{"smiles": "Cc1cc(NC(=O)CSc2nc3ccccc3n2CC(=O)N2CC(C)CC(C)C2)no1", "note": "(stereo not drawn)", "activation": "inactive: -0.57%"}
{"smiles": "Cn1c(=O)c2c(nc(Cl)n2CC(=O)NC2(C#N)CCCCC2)n(C)c1=O", "activation": "inactive: -1.42%"}
{"smiles": "O=C(Cn1c(NCCO)nc2ccccc21)N1CCN(Cc2ccccc2)CC1", "activation": "inactive: -1.31%"}
{"smiles": "Cn1c(=O)c2c(ncn2CC(=O)Nc2ccccc2)n(C)c1=O", "activation": "inactive: 0.08%"}
{"smiles": "Nc1ccccc1CNc1nc(NCCO)nc2c1ncn2CCN1CCOCC1", "activation": "inactive: 1.46%"}
{"smiles": "NC(=O)CC(NC(=O)c1ccccc1)c1ccc(NC2CCN(Cc3ccccc3)CC2)c([N+](=O)[O-])c1", "note": "(stereo not drawn)", "activation": "inactive: -1.26%"}
{"smiles": "N=c1n(CCN2CCCCC2)c2ccccc2n1CC(O)c1ccco1", "note": "(stereo not drawn)", "activation": "inactive: -3.69%"}
{"smiles": "CSc1nc(N)nc2c1ncn2CC(=O)N1CCN(c2ccccn2)CC1", "activation": "inactive: -1.91%"}
{"smiles": "O=S(=O)(Cc1ccccc1)N1CCn2c(nc3ccccc32)C1", "activation": "inactive: -1.3%"}
{"smiles": "CCN(CC)S(=O)(=O)c1ccc(NC2CCN(Cc3ccccc3)CC2)nc1", "activation": "inactive: 1.22%"}
{"smiles": "CC1CCCN(Cc2nc3c(c(=O)n(C)c(=O)n3C)n2CC(N)=O)C1", "note": "(stereo not drawn)", "activation": "inactive: -4.5%"}
{"smiles": "CN1CCN(c2nc3c(c(=O)n(C)c(=O)n3C)n2CC(N)=O)CC1", "activation": "inactive: 1.65%"}
{"smiles": "COc1ccc(Cc2nc3ccccc3n2CC(=O)N/N=C/c2ccc(O)cc2)cc1OC", "activation": "inactive: -1.03%"}
{"smiles": "COC(=O)C1(C)COP(=O)(Nc2ccccc2)OC1", "note": "(stereo not drawn)", "activation": "inactive: -2.64%"}
{"smiles": "O=[N+]([O-])c1cccc(NC2=NCC(CBr)S2)c1", "note": "(stereo not drawn)", "activation": "inactive: -3.81%"}
{"smiles": "CCOC(=O)N1CCN(c2c(NC3CCN(Cc4ccccc4)CC3)c(=O)c2=O)CC1", "activation": "inactive: -0.07%"}
{"smiles": "CC(C)Sc1nc2ccccc2n1CC(N)=O", "activation": "inactive: -2.6%"}
{"smiles": "O=C(Cn1cnc2ccccc21)N1CCN(S(=O)(=O)c2ccccc2)CC1", "activation": "inactive: -1.77%"}
{"smiles": "CN(C)C1(c2nnnn2-c2ccc(Cl)cc2)CCCCC1", "activation": "inactive: 1.59%"}
{"smiles": "Cc1nn(CC(=O)Nc2ccc3c(c2)nc2n3CCN(C3CCCCC3)C2)c(=O)c2ccccc12", "activation": "inactive: -1.23%"}
{"smiles": "Cc1noc(C)c1S(=O)(=O)N(CC(=O)N1CCn2c1nc1ccccc12)c1ccc(C(C)C)cc1", "activation": "inactive: -0.09%"}
{"smiles": "O=[N+]([O-])c1ccc(NC2CCN(Cc3ccccc3)CC2)c2ccncc12", "activation": "inactive: 3.08%"}
{"smiles": "O=C(c1ccccc1Br)N1CCn2c1nc1ccccc12", "activation": "inactive: -2.37%"}
{"smiles": "Cc1cccc(NC(=O)Cn2c(/C=C/c3ccccc3)nc3ccccc32)c1", "activation": "inactive: 0.37%"}
{"smiles": "O=C(O)CNc1ccc([As](=O)(O)O)cc1", "activation": "inactive: -2.29%"}
{"smiles": "COC(=O)c1ccc(N2C(=O)CC(N3CCC(n4c(=O)[nH]c5ccccc54)CC3)C2=O)cc1", "note": "(stereo not drawn)", "activation": "inactive: -1.01%"}
{"smiles": "CCc1nc2ccccc2n1CC(=O)NC1CCS(=O)(=O)C1", "note": "(stereo not drawn)", "activation": "inactive: -1.97%"}
{"smiles": "COc1cccc(NC(=O)Cn2c(-c3cncs3)nc3ccccc32)c1", "activation": "inactive: -2.12%"}
{"smiles": "COc1cccc(CNC(=O)CCNC(=O)N2CCn3c2nc2ccccc23)c1", "activation": "inactive: -2.2%"}
{"smiles": "O=C1CCC(=O)N1c1ccc(NC2CCN(Cc3ccccc3)CC2)c([N+](=O)[O-])c1", "activation": "inactive: -2.85%"}
{"smiles": "CSCC[C@H](NC(=O)N1CCn2c1nc1ccccc12)C(=O)N[C@@H](C(=O)O)c1ccccc1", "activation": "inactive: -1.69%"}
{"smiles": "CC(C)(C)C(=O)NC(Sc1ccncn1)C(Cl)(Cl)Cl", "note": "(stereo not drawn)", "activation": "inactive: 0.29%"}
{"smiles": "COc1ccc(CN(C)C(=O)Cn2cnc3c(NCc4ccccc4)ncnc32)cc1OC", "activation": "inactive: -2.42%"}
{"smiles": "CCN(Cc1ccccc1)C(=O)Cn1c(C(C)O)nc2ccccc21", "note": "(stereo not drawn)", "activation": "inactive: -2.56%"}
{"smiles": "Cn1c(=O)c2c(ncn2CC(=O)NC(C)(C)C)n(C)c1=O", "activation": "inactive: -1.34%"}
{"smiles": "CCCCc1nc2ccccc2n1CC(=O)NN", "activation": "inactive: -1.14%"}
{"smiles": "c1ccc(CN2CCC(Nc3ncnc4sccc34)CC2)cc1", "activation": "inactive: -3.02%"}
{"smiles": "O=[N+]([O-])c1ccc2c(c1)nc1n2CCN(CC2CCCO2)C1", "note": "(stereo not drawn)", "activation": "inactive: -1.13%"}
{"smiles": "CN(C)C(=O)Cn1c(=O)n(S(=O)(=O)c2ccccc2)c2ccccc21", "activation": "inactive: -0.05%"}
{"smiles": "C/C(=N\\NC(=O)Cn1cnc2ccccc21)c1cccs1", "activation": "inactive: -1.39%"}
{"smiles": "Cn1c(=O)c2c(ncn2CC(=O)Nc2ccc(N3CCOCC3)cc2)n(C)c1=O", "activation": "inactive: -2.56%"}
{"smiles": "CSc1nc2ccccc2n1CC(=O)N1CCCCC1", "activation": "inactive: -2.48%"}
{"smiles": "CC(C)OC(=O)c1ccc(NC(=O)Cn2c(-c3nonc3N)nc3ccccc32)cc1", "activation": "inactive: 0.97%"}
{"smiles": "C/C(=N\\NC(=O)Cn1c(-c2ccccn2)nc2ccccc21)c1ccccc1", "activation": "inactive: -6.32%"}
{"smiles": "Cc1ccc2c(c1)C1CN(C)CCC1N2C(=O)Nc1cccc(C(F)(F)F)c1", "note": "(stereo not drawn)", "activation": "inactive: 6.39%"}
{"smiles": "CC(C)(C)NC(=O)Cn1c(SCC(=O)N2CCCCCC2)nc2ccccc21", "activation": "inactive: -2%"}
{"smiles": "CSCC[C@H](NC(=O)N1CCn2c1nc1ccccc12)C(=O)NCc1ccco1", "activation": "inactive: 0.98%"}
{"smiles": "O=[N+]([O-])c1ncn(CCn2ncnc2[N+](=O)[O-])n1", "activation": "inactive: 1.09%"}
{"smiles": "CCCn1c(=O)[nH]c(=O)c2c1nc(-c1ccc(OC(F)F)cc1)n2CCN1CCOCC1", "activation": "inactive: -1.21%"}
{"smiles": "Cn1c(=O)c2ncn(CC(=O)Nc3nc(-c4ccc(Cl)cc4)cs3)c2n(C)c1=O", "activation": "inactive: -0.59%"}
{"smiles": "CCOc1ccc(NC(=O)CN(C)C(=O)Cn2cnc3c2c(=O)n(C)c(=O)n3C)cc1OCC", "activation": "inactive: -1.13%"}
{"smiles": "CC(C)C[C@H](NC(=O)N1CCn2c1nc1ccccc12)C(=O)NCC1CCCO1", "note": "(stereo partly drawn)", "activation": "inactive: -2.68%"}
{"smiles": "Cn1c(=O)[nH]c(=O)c2c1nc(SCc1ccccc1Cl)n2CC(N)=O", "activation": "inactive: -3.34%"}
{"smiles": "COc1ccc(CNC(=O)Cn2cnc3c(=O)n(C)c(=O)n(C)c32)cc1", "activation": "inactive: -1.56%"}
{"smiles": "Cc1ccc2c(c1)[C@@H]1CN(C)CC[C@@H]1N2S(=O)(=O)c1ccc(F)cc1", "activation": "inactive: -0.85%"}
{"smiles": "COc1ccccc1NS(=O)(=O)c1cc(NC(=O)Cn2cnc3c2c(=O)n(C)c(=O)n3C)ccc1C", "activation": "inactive: 0.72%"}
{"smiles": "O=C(c1ccco1)N1CCn2c1nc1ccccc12", "activation": "inactive: -5.04%"}
{"smiles": "COc1ccc(Cc2nc3ccccc3n2CC(=O)N/N=C/c2ccccc2)cc1OC", "activation": "inactive: -0.26%"}
{"smiles": "O=C(Nc1cc([As](=O)(O)O)ccc1O)c1ccccc1", "activation": "inactive: -1.4%"}
{"smiles": "Cn1c(=O)n(CC(=O)Nc2ccccc2)c2ccccc21", "activation": "inactive: -1.58%"}
{"smiles": "Cc1cc(C)c(CN2CCN(C(=O)Cn3cnc4c(OCc5ccccc5)ncnc43)CC2)c(C)c1", "activation": "inactive: 6.2%"}
{"smiles": "C=CCc1cccc(CNc2nc3ccccc3n2CCN2CCOCC2)c1O", "activation": "inactive: -2.76%"}
{"smiles": "COc1ccc(CNc2nc3ccccc3n2CCN2CCCCC2)c(OC)c1", "activation": "inactive: -2.57%"}
{"smiles": "c1ccc(CN2CCC3(CC2)Nc2ccccc2S3)cc1", "activation": "inactive: 4.13%"}
{"smiles": "COc1ccccc1CNc1nc2ccccc2n1CCN1CCCCC1", "activation": "inactive: 0.48%"}
{"smiles": "COc1ccc(N2CCn3c2nc2c3c(=O)n(CCCc3ccccc3)c(=O)n2C)c(OC)c1", "activation": "inactive: 1.92%"}
{"smiles": "CCSc1nnc(NC(=O)Cn2cnc3c2c(=O)n(C)c(=O)n3C)s1", "activation": "inactive: -2.99%"}
{"smiles": "Cn1c(=O)[nH]c(=O)c2c1nc(CN1CCN(c3ccccc3F)CC1)n2CC(N)=O", "activation": "inactive: -1.67%"}
{"smiles": "Cc1nc2cc(C(F)(F)F)ccc2n1C1CCN(Cc2nnnn2Cc2ccc3c(c2)OCO3)CC1", "activation": "inactive: -1.26%"}
{"smiles": "CC1CN(Cc2nc3c(c(=O)[nH]c(=O)n3C)n2CC(N)=O)CC(C)O1", "note": "(stereo not drawn)", "activation": "inactive: -0.79%"}
{"smiles": "Cc1ccc(CNC(=O)CCNC(=O)N2CCn3c2nc2ccccc23)cc1", "activation": "inactive: -2.41%"}
{"smiles": "Cc1ccc(-c2csc(N3CCN(c4cc5c(cc4Cl)nc(C)n5CCN4CCCCC4)CC3)n2)cc1", "activation": "inactive: 0.88%"}
{"smiles": "Cc1cc(NC(=O)CSc2nc3ccccc3n2CC(=O)N2CCCCC2)no1", "activation": "inactive: -0.41%"}
{"smiles": "O=C(CCCN1CCC2(CC1)C(=O)NCN2c1ccccc1)c1ccc(F)cc1", "activation": "inactive: 2.34%"}
{"smiles": "Cn1c(=O)c2c(nc(CN3CCN(c4ccc(F)cc4)CC3)n2CCN2CCOCC2)n(C)c1=O", "activation": "inactive: -1.88%"}
{"smiles": "COc1cc(NC(=O)Cn2c(-c3cncs3)nc3ccccc32)cc(OC)c1OC", "activation": "inactive: -1.58%"}
{"smiles": "COC(=O)C[C@H](NC(=O)Cn1cnc2c(SC)nc(N)nc21)C(=O)OC", "activation": "inactive: -2.78%"}
{"smiles": "Cn1c(=O)c2c(nc(NCCc3ccccc3)n2CC(=O)NCCc2ccccc2)n(C)c1=O", "activation": "inactive: 0.14%"}
{"smiles": "COc1ccc(Cc2nnc(NC(=O)Cn3cnc4c3c(=O)n(C)c(=O)n4C)s2)cc1", "activation": "inactive: -1.56%"}
{"smiles": "CCN(CC)CCn1c(=N)n(CC(O)c2ccco2)c2ccccc21", "note": "(stereo not drawn)", "activation": "inactive: -1.41%"}
{"smiles": "CC(C)Oc1cccnc1N(C)C1CCN(Cc2ccccc2)CC1", "activation": "inactive: -0.87%"}
